Assay: Pharmacokinetic study by intravenous administration to a rat
Conditions: single intravenous dose, 1 mg/mL solution at 1 mL/kg, Wistar rat, plasma

With `Cn1c(=O)n(-c2ccc(C[C@H](NC(=O)c3c(Cl)cccc3Cl)C(=O)O)cc2)c(=O)c2ccccc21` the “total body clearance (CLtot)” value was 31.5 mL/min/kg.
